Two compounds from patent US20240376143A1, “SELECTION INHIBITION OF DNA POLYMERASE BETA BY A COVALENT INHIBITOR” (The Johns Hopkins University, priority 2021, published 2024) can be followed below.

One data set addresses DNA polymerase β (Pol β) (Homo sapiens, UniProt P06746). The following applies: 20 min preincubation, 15 μM.
In a further data set the test system is HeLa cells. Conditions: bleomycin 2 μM alone.

Consider `Cc1cn([C@H]2CC(NC(=O)c3cc(-c4ccc(Cl)cc4)oc3C(F)(F)F)[C@@H](COP(=O)(O)OCC3CC(O)OC3O)O2)c(=O)[nH]c1=O` (some centres unmarked) [Compound 7], for which the “Pol β strand displacement activity” value on DNA polymerase β (Pol β) is recorded as “Complete loss”.
bleomycin had a cytotoxicity in the data set on HeLa cells of 22%.
